The target in the experiment is Rabbit actin (rabbit) (UniProt P68135). Briefly: co-sedimentation; 10 μM actin mixed with increasing concentrations of Tpm; pellet and supernatant on SDS-PAGE, densitometry, Hill equation; K50% = free Tpm for half saturation of actin, 'not a true affinity measurement'; 25 °C (methods) or 20 °C (results); average of 3 independent experiments.
The substance “Tpm^Cdc8.E129K, Nt-acetylated (from UniProt Q02088 1-161) (natural protein)” showed a K50% of 1.65 µM.

“Tpm^Cdc8, wild type, Nt-acetylated (from UniProt Q02088 1-161) (natural protein)” came in with a K50% of 0.62 µM. Under “Tpm^Cdc8.E129K, non-acetylated (from UniProt Q02088 1-161) (natural protein)” stands 4.69 µM.

“Tpm^Cdc8, wild type, non-acetylated (from UniProt Q02088 1-161) (natural protein)” returned a K50% of 2.54 µM.
